The text below walks through data of patent publication US9822157B2 (priority 2013, dated 2017).

One experiment concerns the target T1, human ferroportin (Homo sapiens, UniProt Q9NP59).
T1 sequence (Q9NP59 1-571): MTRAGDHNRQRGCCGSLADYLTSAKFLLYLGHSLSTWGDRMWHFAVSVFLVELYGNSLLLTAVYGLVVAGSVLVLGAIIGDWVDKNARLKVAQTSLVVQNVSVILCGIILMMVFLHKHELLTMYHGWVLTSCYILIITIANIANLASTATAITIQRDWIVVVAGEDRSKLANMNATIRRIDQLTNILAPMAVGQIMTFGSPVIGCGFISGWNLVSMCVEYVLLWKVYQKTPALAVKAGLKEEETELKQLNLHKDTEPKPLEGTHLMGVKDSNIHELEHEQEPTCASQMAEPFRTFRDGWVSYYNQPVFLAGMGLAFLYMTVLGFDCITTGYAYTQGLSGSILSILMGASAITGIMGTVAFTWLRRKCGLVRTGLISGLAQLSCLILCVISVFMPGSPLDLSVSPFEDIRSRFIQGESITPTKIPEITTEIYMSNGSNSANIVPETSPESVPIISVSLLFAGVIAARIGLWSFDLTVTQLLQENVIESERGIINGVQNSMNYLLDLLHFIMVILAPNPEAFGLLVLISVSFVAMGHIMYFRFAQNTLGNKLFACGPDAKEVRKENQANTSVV
The experiment is classed as cell-based. The note with it: Hepcidin analog peptides; read-out: Potency EC50. An excerpt: The cDNA encoding the human ferroportin (SLC40A1) was cloned from a cDNA clone from Origene (NM_014585). The DNA encoding the ferroportin was amplified by PCR using primers also encoding terminal restriction sites for subcloning, but without the termination codon. The ferroportin receptor was subcloned into a mammalian GFP expression vector containing a neomycin (G418) resistance marker in such that the reading frame of the ferroportin was fused in frame with the GFP protein. The fidelity of the DNA encoding the protein was confirmed by DNA sequencing. HEK293 cells were used for transfection of the ferroportin-GFP receptor expression plasmid. The cells were grown according to standard protocol in growth medium and transfected with the plasmids using Lipofectamine (manufacturer's protocol, Invitrogen). […] The cells were propagated and frozen in aliquots.
Compound was added to desired final concentration for at least 18 hours in the incubator. […] Compound was added to desired final concentration for at least 18 hours but no more than 24 hours in the incubator.
A retro inverse peptide is a peptide with a reversed sequence in all D amino acids. […] The EC50 of these reference compounds for ferroportin degradation was determined according to the activity assay described above.
As usually defined, the EC50 is the midpoint of the concentration-response curve. As for “5-Methylpentanoic acid-DTHFPCIKFGPRSKGWVCK-NH2 [Compound 167]”, the concentration giving a half-maximal response (EC50) is 99 nM.

Regarding “Isovaleric acid-DTHFPCIKFGP-K(PEG8)-SKGWVCK-NH2 [Compound 151]”, the EC50 turned out to be 13 nM.

With “Isovaleric acid-DTHFPCIIF-NH2 [Compound 288]”, the EC50 was found to be 16 nM.

Regarding “Isovaleric acid-DTHFPCIIFGPRSKGWACK-NH2 [Compound 141]”, the EC50 stood at 11 nM.

On to “Hy-DTHF-[bh-Pro]-CIIFGPRSRGWVCK-NH2 [Compound 79]”, for which the EC50 was over 1000 nM.

Take “Isobutyric acid-DTHFPCIKFGPRSKGWVCK-NH2 [Compound 162]”: the EC50 was 41 nM.

On to “Isovaleric acid-DTHFPCIIFGPRSRGWVC-K(PEG2)-NH2 [Compound 180]”, for which the EC50 worked out at 9 nM.

On to “Isovaleric acid-DTHFPCIIFGPKSKGWVCK-NH2 [Compound 111]”, for which the EC50 was found to be 12 nM.

Turning to “Isobutyric acid-PEG11-DTHFPCIIFGPRSRGWVCK-NH2 [Compound 109]”, the EC50 was over 1000 nM.

For the substance “Isovaleric acid-DTHFPCIKFGPRSKGWVC-K(Palm)-NH2 [Compound 198]”, the EC50 stood at 7 nM.

On to “Isovaleric acid-DTHFPCIKFEPRSKGWCK-NH2 [Compound 183]”, for which the EC50 came out at 17 nM.

For “Isovaleric acid-DTHFPCI-[Dapa]-FGPRSKGWECK-NH2 [Compound 120]”, the EC50 was found to be 15 nM.

Turning to “Isovaleric acid-DTHFPCI-K(dapa-Palm)-FEPRSKGCK-NH2 [Compound 225]”, the EC50 worked out at 17 nM.

As for “Isovaleric acid-DTHFPCIKFEPRCK-NH2 [Compound 361]”, the EC50 is 29 nM.

For the substance “Isovaleric acid-DTHFPCIIFGPRSKGWTCK-NH2 [Compound 7]”, the EC50 is 24 nM.

“Isovaleric acid-DTHFPCIIFGPRSKGWVCKK-NH2 [Compound 145]”: the EC50 came to 9 nM.

Regarding “Isovaleric acid-DTHFPCIKFGPRS-K(Betaine)-GWVCK-NH2 [Compound 157]”, the EC50 was determined as 18 nM.

As for “Isovaleric acid-DTHFPCIKFGPRCK-NH2 [Compound 189]”, the EC50 was 36 nM.

Regarding “Isovaleric acid-DTHFPCIIFGPRSKGWVC-NH2 [Compound 4]”, the EC50 came out at 19 nM.

“Isovaleric acid-DTHFPCIKFEPRS-K(dapa-Palm)-GCK-NH2 [Compound 228]”: the EC50 was found to be 7 nM.

As to “Isovaleric acid-DTHFPCIKFGPRSKGWVC-K(Betaine)-NH2 [Compound 159]”, the EC50 stood at 17 nM.

Regarding “Isovaleric acid-DTHFPCSIFGPRSKGWVCK-NH2 [Compound 95]”, the EC50 is 78 nM.

“Isovaleric acid-DTHFPCIKFGPRS-K(Palm)-GWVCK-NH2 [Compound 197]”: the EC50 was determined as 1 nM.

As to “Isovaleric acid-DTHFPCIKF-K(butyric acid)-PRSKGWVC-NH2 [Compound 252]”, the EC50 amounted to 37 nM.

With “Isovaleric acid-DTHFSCIIFGPRSKGWVCK-NH2 [Compound 107]”, the EC50 came out at 50 nM.

As to “Isovaleric acid-DTHFPCIKFEPK(isoGlu-Palm)-SKGWECK-NH2 [Compound 242]”, the EC50 worked out at 8 nM.

As for “Isovaleric acid-DTHFPCIKFEP-K(dapa-Palm)-SKGCK-NH2 [Compound 227]”, the EC50 is 10 nM.

In the case of “Isovaleric acid-DTHFPCIKFEPRSKGC-K(dapa-Palm)-K-NH2 [Compound 230]”, the EC50 stood at 10 nM.

As to “Isovaleric acid-DTHFPCIKF-K(dapa-Palm)-PRSKGCK-NH2 [Compound 226]”, the EC50 turned out to be 14 nM.

For the substance “Isovaleric acid-HFPCIIFGPRSKGWVCM-NH2 [Compound 134]”, the EC50 was over 1000 nM.

For the substance “Isovaleric acid-DTHFPCIIFGPRSRGWVC-K(PEG8)-NH2 [Compound 178]”, the EC50 was found to be 3 nM.

Regarding “Hy-DTHFPCIIFGPRSRGWVCK-NH2 [Compound 83]”, the EC50 is over 1000 nM.

As for “Isovaleric acid-DTHFPCI-[Dapa]-FGPRSKGWDCK-NH2 [Compound 118]”, the EC50 was found to be 17 nM.

As for “Isovaleric acid-DTHFPCI-K(Palm)-FGPRSKGWVCK-NH2 [Compound 194]”, the EC50 stood at 4 nM.

“Isovaleric acid-DTHFPCIIFGPRSKGWCK-NH2 [Compound 113]”: the EC50 worked out at 15 nM.

On to “Isovaleric acid-DTHFPCI-K(Betaine)-FGPRSKGWVCK-NH2 [Compound 158]”, for which the EC50 was determined as 16 nM.

Consider “Isovaleric acid-DTHFPCIKFGPRSKGWTCK-NH2 [Compound 154]”, for which the EC50 was found to be 18 nM.

As for “Isovaleric acid-DTHFPCIKFGP-K(Palm)-SKGWVCK-NH2 [Compound 196]”, the EC50 was determined as 2 nM.

“Cyclohexanoic acid-DTHFPCIKFGPRSKGWVCK-NH2 [Compound 168]”: the EC50 was 30 nM.

As to “Isovaleric acid-DTHFPCIFEPRSKGWCK-NH2 [Compound 186]”, the EC50 was 12 nM.

“Isovaleric acid-DTKFPCIIFGPRSKGWVCK-NH2 [Compound 147]”: the EC50 amounted to 20 nM.

“Ida-THFPCIKFEPRSKGWVC-K(mysteric acid)-NH2 [Compound 254]”: the EC50 is 20 nM.

For the substance “Isovaleric acid-DTAFPCIIFGPRSKGWVCK-NH2 [Compound 146]”, the EC50 is 24 nM.

In the case of “Isovaleric acid-DTHFPCIKFEPRSKGWVCK-OH [Compound 238]”, the EC50 is 47 nM.

With “Isovaleric acid-ATHFPCIKFGPRSKGWVCK-NH2 [Compound 234]”, the EC50 was found to be 60 nM.

Turning to “Isovaleric acid-DTHFPCIKFGPRS-K(PEG8)-GWVCK-NH2 [Compound 152]”, the EC50 was 16 nM.

Take “Isovaleric acid-DTHFPCIKF-K(isoglu-Palm)-PHSKECK-NH2 [Compound 358]”: the EC50 amounted to 6 nM.

For the substance “Isovaleric acid-DTHFPCI-K(PEG8)-FGPRSKGWVCK-NH2 [Compound 149]”, the EC50 came to 9 nM.

Regarding “Isovaleric acid-DTHFPCIEFGPRSKGWTCK-NH2 [Compound 155]”, the EC50 turned out to be 38 nM.

“Isovaleric acid-DTHFPCIKFEPRSKGWTCK-NH2 [Compound 182]”: the EC50 amounted to 13 nM.

Regarding “Isovaleric acid-DTHFPCIIFGPRSKGWVCK-NH2 [Compound 11]”, the half-maximal effective concentration (EC50) was determined as 9 nM.

Consider “Isovaleric acid-DTHFPCIKFGPRSCK-NH2 [Compound 188]”, for which the EC50 is 30 nM.

“Isovaleric acid-DTHFPCIIFGPRSRGWVC-K(PEG4)-NH2 [Compound 179]”: the EC50 was 4 nM.

As to “Isovaleric acid-DTHFPCIKAGPRSKGWVCK-NH2 [Compound 237]”, the EC50 was determined as 50 nM.

The same experiment, now with this note: read-out: EC50 (nM) (n = 3); in vitro activity as in Example 2; peptide monomers and dimers dimerized through a single disulphide linkage; n = 3.
“Isovaleric acid-DTHFPCIIF-NH2 [Compound 288]”: the EC50 came to 16 nM.

In the case of “(Isovaleric acid-DTHFPCIKF-NH2)2 [Compound 326]”, the EC50 was 3 nM.

Staying with this experiment, now noted: read-out: EC50 (nM) (n > 3); alanine scan of Compound 18.
As for DTHFPICIFGARSKGWVCM-NH2 [Compound 354], the EC50 turned out to be 153 nM.

Still in this experiment, the particulars now being: read-out: EC50 (nM) (n > 3); peptide dimers, dimer position explored (DIG linker).
Turning to “DIG-(DTHFPCIKF-NH2)2 DIG through N-terminus [Compound 328]”, the EC50 is over 1000 nM.

On to “(Isovaleric acid-DTHFPCIKFK-NH2)2 DIG through K10 [Compound 346]”, for which the EC50 stood at 15 nM.

In the case of “(Isovaleric acid-DTHFPCIKF-NH2)2 [Compound 326]”, the EC50 came to 3 nM.

With “(Isovaleric acid-DTKFPCIRF-NH2)2 DIG through K3 [Compound 340]”, the EC50 was 212 nM.

As for “(Isovaleric acid-DTHFPCIKFK-NH2)2 [Compound 345]”, the EC50 came to 8 nM.

Regarding “(Isovaleric acid-DTHFPCIRK-NH2)2 [Compound 343]”, the EC50 worked out at 11 nM.

Still in this experiment, the particulars now being: read-out: Log dilutions EC50 (nM) (n > 3) (converted); monomers and dimers through a glycol linker on εN of lysine.
Consider “(Isovaleric acid-DTHFPICIFGPRSKGWVC-NH2)2-[DIG] [Compound 353]”, for which the concentration for a half-maximal effect (EC50) is 2.2 nM.

Take “(Isovaleric acid-DTHFPCIIFGPRSRGWVCK-NH2)2-[DIG] [Compound 352]”: the EC50 is 5 nM.

The experiment is the same for the next values; noted with them: read-out: Log dilutions EC50 (nM) (n > 3) (converted); peptide dimers, various linkers at different positions.
For “(Hy-DTHFPCIKF-NH2)2-[IDA-(β-Ala)] [Compound 348]”, the EC50 is 18 nM.

Turning to “(Isovaleric acid-DTHFPCIKF-NH2)2-[IDA-(β-Ala)-Palm] [Compound 349]”, the EC50 was 5 nM.

On to “(Isovaleric acid-DTHFPCIKFK-NH2)2 DIG through K10 [Compound 346]”, for which the concentration for a half-maximal effect (EC50) was 15 nM.

As to “(Isovaleric acid-DTHFPCIKF-NH2)2 [Compound 326]”, the EC50 was 6 nM.

Consider [PEG25]-(DTHFPCIKF-NH2)2 [Compound 351], for which the EC50 is over 1000 nM.

Consider “(Isovaleric acid-DTHFPCIKFK-NH2)2 [Compound 345]”, for which the EC50 was 8 nM.
